Test results published in patent US20090105278A1, “Selective inhibitors of human corticosteroid syntheses” (Universitat Des Saarlandes, priority 2004, published 2009).
Counter-ions that a name gives are not always drawn. Like-named read-outs stand apart in the source and are kept apart here.

Amino acid sequences for entries named in this document (tags omitted). A change or cut given only in a name is not applied to a line headed by its entry.
UniProt P11511: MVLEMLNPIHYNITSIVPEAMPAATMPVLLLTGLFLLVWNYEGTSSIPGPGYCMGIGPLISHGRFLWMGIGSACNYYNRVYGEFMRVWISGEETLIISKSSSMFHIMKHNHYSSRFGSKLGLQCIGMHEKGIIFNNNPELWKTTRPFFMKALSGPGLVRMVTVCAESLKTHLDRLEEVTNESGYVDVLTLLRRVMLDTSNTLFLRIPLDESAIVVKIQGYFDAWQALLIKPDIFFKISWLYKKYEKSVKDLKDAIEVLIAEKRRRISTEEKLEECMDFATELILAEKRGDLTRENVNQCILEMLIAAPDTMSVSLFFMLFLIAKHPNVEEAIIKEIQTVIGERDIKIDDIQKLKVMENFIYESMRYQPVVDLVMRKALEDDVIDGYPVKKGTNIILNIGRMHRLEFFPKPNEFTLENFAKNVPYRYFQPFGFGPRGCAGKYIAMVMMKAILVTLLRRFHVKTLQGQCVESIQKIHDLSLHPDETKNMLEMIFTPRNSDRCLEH

What was measured:
human CYP11B1 = biological target: T1, human CYP11B1 (Homo sapiens, UniProt P15538); experiment: V79 MZh 11B1 cells inhibition test
T1 sequence (P15538 25-503): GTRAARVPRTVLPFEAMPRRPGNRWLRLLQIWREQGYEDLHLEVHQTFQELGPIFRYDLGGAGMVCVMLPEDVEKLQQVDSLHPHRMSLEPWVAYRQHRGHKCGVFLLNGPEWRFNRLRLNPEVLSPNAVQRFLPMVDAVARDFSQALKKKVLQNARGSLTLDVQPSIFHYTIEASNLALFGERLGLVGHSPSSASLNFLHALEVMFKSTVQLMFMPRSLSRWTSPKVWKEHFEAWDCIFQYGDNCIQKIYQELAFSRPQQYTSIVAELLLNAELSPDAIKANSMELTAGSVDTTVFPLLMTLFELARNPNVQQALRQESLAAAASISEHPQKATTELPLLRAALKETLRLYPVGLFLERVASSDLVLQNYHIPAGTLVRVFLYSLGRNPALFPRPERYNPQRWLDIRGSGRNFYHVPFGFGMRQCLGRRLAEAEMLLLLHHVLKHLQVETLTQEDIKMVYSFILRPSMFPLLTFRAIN

human CYP11B2 = biological target: T2, human CYP11B2 (Homo sapiens, UniProt P19099); experiment: V79 MZh 11B2 cells inhibition test; format: cell-based; parameters: expressed in transfected cells; host or cells: V79 MZh11B2 (Chinese hamster lung fibroblasts)
T2 sequence (P19099 25-503): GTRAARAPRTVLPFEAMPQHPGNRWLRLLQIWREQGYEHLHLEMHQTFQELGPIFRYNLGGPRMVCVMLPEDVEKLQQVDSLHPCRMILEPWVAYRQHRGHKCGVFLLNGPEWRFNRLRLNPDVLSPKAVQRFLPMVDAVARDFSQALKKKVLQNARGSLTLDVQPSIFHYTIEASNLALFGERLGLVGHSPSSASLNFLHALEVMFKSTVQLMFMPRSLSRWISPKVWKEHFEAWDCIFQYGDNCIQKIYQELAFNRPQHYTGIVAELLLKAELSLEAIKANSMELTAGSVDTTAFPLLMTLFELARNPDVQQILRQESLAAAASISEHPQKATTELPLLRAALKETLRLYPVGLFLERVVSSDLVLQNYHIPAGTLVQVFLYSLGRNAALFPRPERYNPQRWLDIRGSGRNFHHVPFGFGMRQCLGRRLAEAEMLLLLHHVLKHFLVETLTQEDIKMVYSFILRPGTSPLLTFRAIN

human placental CYP19 = biological target: T3, human placental CYP19 (Homo sapiens, UniProt P11511); experiment: IC50 of CYP19 (human placental microsomes); format: biochemical; conditions: testosterone substrate 2.5 μM
T3 construct: The enzyme was obtained from the microsome fraction of fresh human placenta; from tissue; host or cells: human placenta, microsomal fraction

[1] = hamster fibroblasts which express human CYP11B2, deoxycorticosterone substrate 100 nM, read-out: IC50 V79 11B2 hCYP11B2

SMILES	IC50 (human CYP11B1)	IC50 (human CYP11B2)	IC50 (human placental CYP19)	IC50 (human CYP11B2; [1])
N#Cc1ccc2c(c1)CC/C2=C/c1cnc[nH]1.O=C(O)C(=O)O [Compound 45b, (1Z)-1-(1H-Imidazole-5-ylmethylene)indane-5-carbonitrile oxalate]	0.0123 µM	0.0357 µM		
N#Cc1ccc2c(c1)CC/C2=C\c1cnc[nH]1.O=C(O)C(=O)O [Compound 45a, (1E)-1-(1H-Imidazole-5-ylmethylene)indane-5-carbonitrile oxalate]			0.119 µM	0.0359 µM
N#Cc1ccc2c(c1)CCC/C2=C/c1cnc[nH]1.O=C(O)C(=O)O [Compound 44b, (5Z)-5-(1H-Imidazole-5-ylmethylene)-5,6,7,8-tetrahydronaphthalene-2-carbonitrile oxalate]			0.125 µM	0.0227 µM
C(=C1\CCc2ccccc21)/c1cnc[nH]1 [Compound 42b, 5-[(Z)-2,3-Dihydro-1H-ind-1-ylidenemethyl]-1H-imidazolium oxalate]			0.13 µM	
C(=C1/CCc2ccccc21)/c1cnc[nH]1 [Compound 42a, 5-[(E)-2,3-Dihydro-1H-indane-1-ylidenemethyl]-1H-imidazole]			0.955 µM	
Fc1ccc2c(c1)CC/C2=C\c1cnc[nH]1 [Compound 47a, 5-[(E)-(5-Fluoro-2,3-dihydro-1H-indene-1-ylidenemethyl]-1H-imidazolium chloride]			0.218 µM	
